Results reported in paper PMC3946900 (Pharmaceutical research, 2013).

Tested on: P-gp
Test: Compartmental models of apical efflux fit to permeability data
Details: 5C model, asa = 1, lipid content = 10%

CLi (diffusion clearance into an explicit membrane compartment): 0.3 µL/min
Compound: Nc1cc(N2CCCCC2)nc(N)[n+]1[O-] [Minoxidil]
